From PubChem BioAssay AID588497 (NMMLSC, 2011)
The entries are a selection whose mix differs from that of the whole data set. Records with an inconclusive call do not appear. Calls of active or inactive are those of the source. Rule as the data show it: active = inhibition above about 35% (passing the limit was not always enough); inconclusive = no clear call, values can overlap the other calls.

These molecules were tested on Botulinum neurotoxin type F light chain protease (Clostridium botulinum) (assay: BoNT/F light chain protease inhibitors, primary screen, biochemical, flow cytometry, MLPCN library (AID 588497; also: plate controls were buffer without enzyme for full effect and enzyme alone for no effect)). Conditions: Multiplex microsphere protease cleavage assay, at 10 µM, hits give high values.
With CCC(=O)N(c1ccccc1)C1(COC)CCN(CCn2nnn(CC)c2=O)CC1 the inhibition was inactive: 4.7%. In the case of CCC(=O)N(c1ccccc1)C1(COC)CCN(CCc2cccs2)CC1, the inhibition is reported as inactive: -1.3%.
